From ChEMBL document CHEMBL4406833 (Eur J Med Chem, 2019)
Values after ≈ are worked out from the molar mass of the structure shown.

Tests used:
[1] = Aqueous solubility of compound at 1 mg after 30 hrs by HPLC analysis; assay type: physicochemical; settings: in vivo
[2] = Apparent permeability across apical to basolateral side in human Caco2 cells upto 90 mins by LC-MS/MS analysis; assay type: ADME, cell-based; settings: caco-2, 1.5 h
[3] = Oral bioavailability in rat at 10 mg/kg after 24 hrs by LC-MS/MS analysis; settings: in vivo
[4] = Half life in rat at 2.5 mg/kg, iv after 24 hrs by LC-MS/MS analysis; settings: in vivo
[5] = AUC in rat at 2.5 mg/kg, iv after 24 hrs by LC-MS/MS analysis; settings: in vivo
[6] = Half life in rat at 10 mg/kg, po after 24 hrs by LC-MS/MS analysis; settings: in vivo
[7] = Volume of distribution in rat at 10 mg/kg, po after 24 hrs by LC-MS/MS analysis; settings: in vivo
[8] = Clearance in rat at 2.5 mg/kg, iv or 10 mg/kg, po after 24 hrs by LC-MS/MS analysis; settings: in vivo
[9] = Half life in human serum at 0.5 mM after 0.5 to 24 hrs by HPLC analysis; settings: 500 µM

| SMILES | solubility [1] | Papp [2] | bioavailability [3] | t1/2 [4] | AUC [5] | t1/2 [6] | Vd [7] | clearance [8] | t1/2 [9] |
| --- | --- | --- | --- | --- | --- | --- | --- | --- | --- |
| COP(C)(=O)NCCCCNc1nonc1/C(=N/O)Nc1ccc(F)c(Br)c1 (stereo not drawn) | 160 µg/mL (≈ 334 µM) | 2.1 ×10⁻⁶ cm/s | – | – | – | – | – | – | – |
| CCOP(=O)(CC)NCCNc1nonc1/C(=N/O)Nc1ccc(F)c(Br)c1 (stereo not drawn) | 250 µg/mL (≈ 522 µM) | 1.9 ×10⁻⁶ cm/s | – | – | – | – | – | – | – |
| COP(C)(=O)NCCNc1nonc1/C(=N/O)Nc1ccc(F)c(Br)c1 (stereo not drawn) | 210 µg/mL (≈ 465 µM) | 2.9 ×10⁻⁶ cm/s | 11% | 39.6 min | 902 ng·h/mL | 54.6 min | 2.09 L/kg | 46.8 mL/min/kg | > 1440 min |
